Assay results from PMC7504039, “Tetrapeptide Ac-HAEE-NH2 Protects α4β2 nAChR from Inhibition by Aβ” (International Journal of Molecular Sciences, 2020).

Target: rat α4β2 nicotinic acetylcholine receptor (α4β2 nAChR) (rat) (UniProt P09483)

Aβ42, [H2N]-[residues removed]-[COOH] (peptide)
inhibition of the ACh (100 µM)-evoked ion current in X. laevis oocytes expressing rat α4β2 nAChR after 3 min pre-incubation with 10 µM Aβ42 (two-electrode voltage clamp): 30%
